The list shows a part of the results, in another mix than the full data. Records with an inconclusive call do not appear. The source made the active and inactive calls. How the source made its calls, unless noted: active means hit-call score of the fitted dose curve at least 0.9, where 1 is the maximum; inactive means score below 0.9.

Sequences of proteins named here, by UniProt entry; tags and fusion partners are left off.
UniProt P04150, whole entry: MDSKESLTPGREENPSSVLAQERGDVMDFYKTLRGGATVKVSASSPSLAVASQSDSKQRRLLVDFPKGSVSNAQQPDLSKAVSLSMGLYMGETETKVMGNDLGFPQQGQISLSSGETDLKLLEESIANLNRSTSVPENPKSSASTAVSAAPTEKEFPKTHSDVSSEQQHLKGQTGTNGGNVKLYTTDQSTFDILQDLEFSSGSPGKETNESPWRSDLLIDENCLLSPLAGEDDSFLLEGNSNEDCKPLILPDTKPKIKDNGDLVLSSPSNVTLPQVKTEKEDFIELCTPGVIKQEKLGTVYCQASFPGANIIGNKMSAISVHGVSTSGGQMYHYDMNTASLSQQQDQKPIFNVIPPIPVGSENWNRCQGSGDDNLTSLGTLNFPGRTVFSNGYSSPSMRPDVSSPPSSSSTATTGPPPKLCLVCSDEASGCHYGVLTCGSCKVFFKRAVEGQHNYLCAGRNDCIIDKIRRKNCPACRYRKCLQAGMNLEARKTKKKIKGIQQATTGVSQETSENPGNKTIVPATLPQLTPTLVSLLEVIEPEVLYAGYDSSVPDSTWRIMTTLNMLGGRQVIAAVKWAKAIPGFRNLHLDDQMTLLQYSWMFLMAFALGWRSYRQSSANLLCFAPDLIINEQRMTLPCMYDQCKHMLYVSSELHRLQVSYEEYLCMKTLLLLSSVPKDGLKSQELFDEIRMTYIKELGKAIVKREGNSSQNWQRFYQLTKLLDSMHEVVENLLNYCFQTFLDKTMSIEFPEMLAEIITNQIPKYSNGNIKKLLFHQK
UniProt Q96RI1, whole entry: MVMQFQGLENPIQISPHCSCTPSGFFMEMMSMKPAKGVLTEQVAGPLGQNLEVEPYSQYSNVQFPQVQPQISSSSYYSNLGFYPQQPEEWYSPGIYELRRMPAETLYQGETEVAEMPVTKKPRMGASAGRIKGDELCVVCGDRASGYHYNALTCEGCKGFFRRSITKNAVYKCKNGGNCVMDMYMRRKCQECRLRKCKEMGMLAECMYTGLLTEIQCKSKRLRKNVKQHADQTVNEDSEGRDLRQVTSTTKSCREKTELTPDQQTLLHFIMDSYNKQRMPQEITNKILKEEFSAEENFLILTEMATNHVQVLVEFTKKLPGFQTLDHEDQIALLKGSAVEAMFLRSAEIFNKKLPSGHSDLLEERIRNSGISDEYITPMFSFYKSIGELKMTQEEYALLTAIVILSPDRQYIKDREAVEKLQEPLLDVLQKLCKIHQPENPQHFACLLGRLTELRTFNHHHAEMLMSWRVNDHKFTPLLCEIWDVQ
UniProt P41235, whole entry: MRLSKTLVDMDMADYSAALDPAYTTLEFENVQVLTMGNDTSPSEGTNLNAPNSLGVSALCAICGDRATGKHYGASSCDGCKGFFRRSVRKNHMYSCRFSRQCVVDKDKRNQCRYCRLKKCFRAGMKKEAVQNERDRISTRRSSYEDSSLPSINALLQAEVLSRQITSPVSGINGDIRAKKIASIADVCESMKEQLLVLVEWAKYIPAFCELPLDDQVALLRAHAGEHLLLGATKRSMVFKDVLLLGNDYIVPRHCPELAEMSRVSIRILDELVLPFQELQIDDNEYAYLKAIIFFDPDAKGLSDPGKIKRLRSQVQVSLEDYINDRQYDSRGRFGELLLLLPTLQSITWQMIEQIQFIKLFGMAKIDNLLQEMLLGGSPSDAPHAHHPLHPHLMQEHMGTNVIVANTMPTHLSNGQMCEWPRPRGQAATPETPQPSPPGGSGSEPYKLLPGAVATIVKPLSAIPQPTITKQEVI
UniProt P43354, whole entry: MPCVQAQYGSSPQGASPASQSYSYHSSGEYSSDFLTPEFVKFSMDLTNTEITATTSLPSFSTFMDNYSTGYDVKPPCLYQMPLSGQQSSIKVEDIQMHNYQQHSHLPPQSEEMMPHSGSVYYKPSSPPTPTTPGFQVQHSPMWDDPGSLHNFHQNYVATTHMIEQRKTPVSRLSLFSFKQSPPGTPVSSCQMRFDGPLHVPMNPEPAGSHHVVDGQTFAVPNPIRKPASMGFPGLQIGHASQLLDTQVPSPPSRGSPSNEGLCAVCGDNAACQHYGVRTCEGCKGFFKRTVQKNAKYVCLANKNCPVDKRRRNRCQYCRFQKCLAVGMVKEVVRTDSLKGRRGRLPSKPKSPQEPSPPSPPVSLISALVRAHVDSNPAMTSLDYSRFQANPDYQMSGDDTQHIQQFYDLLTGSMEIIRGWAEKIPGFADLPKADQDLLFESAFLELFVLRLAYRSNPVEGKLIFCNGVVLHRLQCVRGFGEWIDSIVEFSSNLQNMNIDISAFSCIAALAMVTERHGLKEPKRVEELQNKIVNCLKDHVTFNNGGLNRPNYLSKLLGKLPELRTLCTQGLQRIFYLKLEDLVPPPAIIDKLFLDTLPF
UniProt P10242, whole entry: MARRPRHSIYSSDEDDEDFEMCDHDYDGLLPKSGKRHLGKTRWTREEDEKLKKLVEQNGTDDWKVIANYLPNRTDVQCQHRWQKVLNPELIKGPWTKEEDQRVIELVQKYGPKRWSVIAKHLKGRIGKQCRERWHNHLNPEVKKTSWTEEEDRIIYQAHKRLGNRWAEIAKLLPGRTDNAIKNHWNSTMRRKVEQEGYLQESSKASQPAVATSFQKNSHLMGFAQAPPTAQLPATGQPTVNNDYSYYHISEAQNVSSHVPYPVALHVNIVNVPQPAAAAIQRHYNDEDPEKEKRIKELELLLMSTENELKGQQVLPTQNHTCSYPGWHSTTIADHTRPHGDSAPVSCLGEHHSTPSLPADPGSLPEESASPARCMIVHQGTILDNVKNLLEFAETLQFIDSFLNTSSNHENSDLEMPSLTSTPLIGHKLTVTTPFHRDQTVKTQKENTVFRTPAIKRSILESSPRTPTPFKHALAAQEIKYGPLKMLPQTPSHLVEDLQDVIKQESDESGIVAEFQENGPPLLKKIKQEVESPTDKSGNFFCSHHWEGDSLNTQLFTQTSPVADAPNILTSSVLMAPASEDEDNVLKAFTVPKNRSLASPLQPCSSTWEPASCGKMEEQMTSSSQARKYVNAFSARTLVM
UniProt Q16656, whole entry: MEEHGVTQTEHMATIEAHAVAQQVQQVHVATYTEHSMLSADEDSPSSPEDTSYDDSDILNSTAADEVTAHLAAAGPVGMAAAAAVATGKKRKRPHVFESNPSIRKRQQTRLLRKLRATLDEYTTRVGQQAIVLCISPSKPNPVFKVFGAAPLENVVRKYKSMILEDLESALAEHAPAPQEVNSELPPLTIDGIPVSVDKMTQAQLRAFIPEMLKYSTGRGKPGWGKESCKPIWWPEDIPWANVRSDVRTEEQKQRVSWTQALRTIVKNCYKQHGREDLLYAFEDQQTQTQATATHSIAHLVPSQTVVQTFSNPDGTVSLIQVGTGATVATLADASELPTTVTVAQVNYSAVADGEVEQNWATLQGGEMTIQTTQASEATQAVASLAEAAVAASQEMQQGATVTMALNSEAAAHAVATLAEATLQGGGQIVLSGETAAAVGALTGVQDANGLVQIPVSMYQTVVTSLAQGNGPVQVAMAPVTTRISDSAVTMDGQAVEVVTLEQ
UniProt P01106, whole entry: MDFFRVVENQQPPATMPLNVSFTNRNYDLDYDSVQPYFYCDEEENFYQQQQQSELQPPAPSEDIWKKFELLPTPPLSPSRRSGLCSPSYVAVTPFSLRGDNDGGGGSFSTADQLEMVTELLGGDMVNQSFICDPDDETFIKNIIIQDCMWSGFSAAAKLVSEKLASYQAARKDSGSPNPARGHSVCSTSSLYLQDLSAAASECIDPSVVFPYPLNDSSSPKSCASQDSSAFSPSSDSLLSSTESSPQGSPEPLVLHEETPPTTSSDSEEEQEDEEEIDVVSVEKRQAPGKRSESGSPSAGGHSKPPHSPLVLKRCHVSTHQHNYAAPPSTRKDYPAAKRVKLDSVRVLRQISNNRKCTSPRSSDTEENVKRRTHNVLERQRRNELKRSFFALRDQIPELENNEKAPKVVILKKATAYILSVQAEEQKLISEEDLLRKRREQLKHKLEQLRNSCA
UniProt P55055, whole entry: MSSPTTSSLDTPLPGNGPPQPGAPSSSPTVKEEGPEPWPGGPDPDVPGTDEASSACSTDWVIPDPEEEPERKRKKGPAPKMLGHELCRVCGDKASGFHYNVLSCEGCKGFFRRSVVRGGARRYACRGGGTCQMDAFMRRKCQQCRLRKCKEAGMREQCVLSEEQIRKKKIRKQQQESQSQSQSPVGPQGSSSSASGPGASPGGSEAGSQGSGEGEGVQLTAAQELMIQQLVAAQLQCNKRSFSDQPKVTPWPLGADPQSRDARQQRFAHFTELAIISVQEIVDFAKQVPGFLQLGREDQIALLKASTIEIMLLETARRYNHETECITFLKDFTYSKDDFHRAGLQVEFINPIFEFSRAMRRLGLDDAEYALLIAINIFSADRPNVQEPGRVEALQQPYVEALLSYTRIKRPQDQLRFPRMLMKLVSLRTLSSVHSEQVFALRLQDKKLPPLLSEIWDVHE
UniProt Q13133, whole entry: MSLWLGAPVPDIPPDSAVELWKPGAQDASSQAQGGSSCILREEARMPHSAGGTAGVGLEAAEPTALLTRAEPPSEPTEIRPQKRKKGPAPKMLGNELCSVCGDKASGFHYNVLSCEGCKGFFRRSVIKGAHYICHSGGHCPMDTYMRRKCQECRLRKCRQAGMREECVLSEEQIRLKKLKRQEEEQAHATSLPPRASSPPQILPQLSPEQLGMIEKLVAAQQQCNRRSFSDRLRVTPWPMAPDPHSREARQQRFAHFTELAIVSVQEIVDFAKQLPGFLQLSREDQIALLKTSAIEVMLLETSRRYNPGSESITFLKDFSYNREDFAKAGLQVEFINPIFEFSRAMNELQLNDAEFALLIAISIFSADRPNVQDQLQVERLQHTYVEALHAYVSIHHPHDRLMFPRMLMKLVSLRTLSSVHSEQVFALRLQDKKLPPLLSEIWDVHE
UniProt P62508, whole entry: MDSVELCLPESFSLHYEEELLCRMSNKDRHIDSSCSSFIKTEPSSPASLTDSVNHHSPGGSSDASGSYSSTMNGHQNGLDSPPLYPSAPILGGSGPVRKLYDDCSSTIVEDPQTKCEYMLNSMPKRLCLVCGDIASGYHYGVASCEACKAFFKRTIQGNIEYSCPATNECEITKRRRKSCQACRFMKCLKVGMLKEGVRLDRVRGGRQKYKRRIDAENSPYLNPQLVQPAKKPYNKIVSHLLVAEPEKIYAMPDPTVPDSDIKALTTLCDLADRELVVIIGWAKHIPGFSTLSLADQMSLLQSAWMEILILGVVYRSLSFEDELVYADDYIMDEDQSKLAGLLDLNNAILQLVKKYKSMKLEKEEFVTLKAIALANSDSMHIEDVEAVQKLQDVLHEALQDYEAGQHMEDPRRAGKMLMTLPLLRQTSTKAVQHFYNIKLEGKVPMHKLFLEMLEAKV

The nature of test [1]: ATG_GAL4_TRANS: Attagene TRANS-FACTORIAL HepG2 Assay for GAL4 (Internal Marker) (AID 2282976; active means hit-call score of the fitted dose curve at least 0.9, where 1 is the maximum). The following applies: HepG2 Attagene TRANS GAL4 internal marker reporter. The method in brief:
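Fluorescence from capillary electrophoresis of labelled RT-PCR products quantifies reporter mRNA induction after 24 h dosing of HepG2 cells carrying transfected GAL4-UAS reporter transcription units. Vehicle DMSO serves as baseline.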

The target in test [2] is Glucocorticoid receptor (Homo sapiens) (UniProt P04150). Description: ATG_GR_TRANS: Attagene TRANS-FACTORIAL HepG2 Assay for human Glucocorticoid Receptor (GR) (AID 2282978; active means hit-call score of the fitted dose curve at least 0.9, where 1 is the maximum;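 further: activators score as hits since higher reporter transcript over DMSO is fitted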). The conditions noted are these: HepG2 Attagene TRANS GR reporter, mRNA transcription.
Test [3] deals with Bile acid receptor (Homo sapiens) (UniProt Q96RI1). Description: ATG_FXR_TRANS: Attagene TRANS-FACTORIAL HepG2 Assay for Farnesoid X Receptor (FXR) (AID 2282979; active means hit-call score of the fitted dose curve at least 0.9, where 1 is the maximum;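 further: hits raise reporter mRNA above DMSO so AC50 marks FXR activation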). The following applies: HepG2 Attagene TRANS FXR-GAL4 reporter transcription. The procedure, abridged: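 Chimeric FXR-GAL4 activity in transiently transfected human HepG2 liver cells is scored as induction of reporter mRNA after 24 h of dosing. Detection uses RT-PCR with fluorescent labelling and capillary electrophoresis, with DMSO serving as baseline.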

The target of test [4] is Hepatocyte nuclear factor 4-alpha (Homo sapiens) (UniProt P41235). In words: ATG_HNF4a_TRANS: Attagene TRANS-FACTORIAL HepG2 Assay for human Hepatocyte Nuclear Factor 4 alpha (HNF4a) (AID 2282982; active means hit-call score of the fitted dose curve at least 0.9, where 1 is the maximum). The following applies: HepG2 HNF4a transactivation reporter, mRNA readout. The procedure, abridged:
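Gain-of-signal mRNA induction, relative to DMSO vehicle, was read after 24 h compound treatment of HepG2 cells bearing transfected GAL4-UAS reporters. Detection used RT-PCR, 6-FAM primer extension and capillary electrophoresis.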

Test [5] can be described thus: ATG_M_32_TRANS: Attagene TRANS-FACTORIAL HepG2 Assay for M32 Transcription Factor (Internal Marker) (AID 2282984; active means hit-call score of the fitted dose curve at least 0.9, where 1 is the maximum;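 further: transcript level of a background control reporter unit measured by RT-PCR and capillary electrophoresis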). The conditions noted are these: HepG2 Attagene TRANS M32 internal marker reporter. The procedure, abridged:
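Capillary electrophoresis of 6-FAM-labelled reporter fragments gives the signal; data fitted for gain over DMSO negative control. Source: HepG2 cells bearing transient multiple reporter transcription units, 24 h exposure.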

Test [6] has as its target Nuclear receptor subfamily 4 group A member 2 (Homo sapiens) (UniProt P43354). Description: ATG_NURR1_TRANS: Attagene TRANS-FACTORIAL HepG2 Assay for human Nuclear Receptor Related Protein 1 (NURR1) (AID 2282985; active means hit-call score of the fitted dose curve at least 0.9, where 1 is the maximum). The following applies: HepG2 Attagene TRANS reporter, mRNA readout. The procedure, abridged:
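HepG2 / transient MRTU transfection / 24 h compound exposure / RT-PCR + CE fluorescence of reporter mRNA / gain-of-signal vs DMSO.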

Test [7] has as its target Transcriptional activator Myb (Homo sapiens) (UniProt P10242). In words: ATG_Myb_CIS: Attagene CIS-FACTORIAL HepG2 Assay for human Myeloblastosis (Myb) Proto-Oncogene Transcription Factor (AID 2282986). The conditions noted are these: HepG2 Attagene CIS-FACTORIAL Myb reporter transcription; actives raise or lower the signal. The procedure, abridged:
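HepG2 cells were transiently transfected with cis-regulated multiple reporter transcription units reflecting endogenous Myb activity, then exposed to compound for 24 hours. Reporter mRNA was measured by RT-PCR with capillary electrophoresis; bidirectional fitting versus DMSO baseline.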

Test [8] concerns the target Nuclear respiratory factor 1 (Homo sapiens) (UniProt Q16656). In words: ATG_NRF1_CIS: Attagene CIS-FACTORIAL HepG2 Assay for human Nuclear Respiratory Factor 1 (NRF1) Orphan Gene (AID 2282987). The following applies: HepG2 NRF1 cis-element reporter, Attagene multiplex; actives raise or lower the signal. The method in brief: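 HepG2 cells transiently transfected with multiple reporter transcription units under cis-regulatory promoter control, so endogenous transcription-factor activity is read. After 24 h compound exposure, reporter mRNA quantified by RT-PCR, fluorescent labelling, HpaI digestion and capillary electrophoresis; bidirectional fitting versus DMSO.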

The target of test [9] is Myc proto-oncogene protein (Homo sapiens) (UniProt P01106). Description: ATG_Myc_CIS: Attagene CIS-FACTORIAL HepG2 Assay for human Myelocytomatosis (Myc) Proto-Oncogene Transcription Factor (AID 2282990). The following applies: HepG2, Attagene cis-reporter transcription factor activity; actives raise or lower the signal. The method in brief: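 Transiently transfected HepG2 cells bearing cis-promoter reporter units for endogenous transcription factors; 24 h exposure. Reporter mRNA measured by RT-PCR, 6-FAM primer extension, HpaI cut and capillary electrophoresis; bidirectional fit relative to DMSO.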

The nature of test [10]: ATG_NF_kB_CIS: Attagene CIS-FACTORIAL HepG2 Assay for human Nuclear Factor Kappa B (NF-kB) (AID 2282991). The following applies: HepG2 Attagene cis-factorial NF-kB reporter mRNA; actives raise or lower the signal. The procedure, abridged: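 HepG2 cells transiently transfected with multiplexed cis-element reporter units measuring endogenous transcription factor activity; reporter mRNA read 24 h after dosing by RT-PCR, fluorescent labelling, HpaI digestion and capillary electrophoresis. Bidirectional fit against DMSO baseline.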

Test [11] is described as follows: ATG_NRF2_ARE_CIS: Attagene CIS-FACTORIAL HepG2 Assay for human Nuclear Factor Erythroid 2 Related Factor 2 (NFR2) response to Antioxidant Response Elements (ARE) (AID 2282992).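 On AC50: reporter mRNA level measured by RT-PCR and capillary electrophoresis fluorescence.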 The conditions noted are these: HepG2 Attagene ARE/NRF2 reporter, transcription factor activity; actives raise or lower the signal. The procedure, abridged:
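Cis-factorial assay: transfected HepG2 reporter library, 24 h dosing, mRNA readout via RT-PCR/CE; DMSO-referenced bidirectional analysis.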

The nature of test [12]: ATG_Oct_MLP_CIS: Attagene CIS-FACTORIAL HepG2 Assay for human Octamer-Binding Transcription Factor (Oct) (AID 2282993). The conditions noted are these: HepG2 Attagene cis-factorial Oct reporter, mRNA; actives raise or lower the signal. The method in brief: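 Transient MRTU transfection of HepG2 → 24 h compound treatment → RNA isolation, reverse transcription, PCR → 6-FAM primer extension, HpaI digest → capillary electrophoresis. Activity fitted both directions against DMSO.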

Test [13] in a line: ATG_M_06_TRANS: Attagene TRANS-FACTORIAL HepG2 Assay for M06 Transcription Factor (Internal Marker) (AID 2282983; active means hit-call score of the fitted dose curve at least 0.9, where 1 is the maximum). The conditions noted are these: HepG2 Attagene TRANS M06 internal marker reporter. The method in brief: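 Measured by capillary electrophoresis of fluorescently labelled RT-PCR products, this endpoint reflects reporter mRNA in HepG2 cells harbouring exogenous NR-GAL4 reporter constructs after 24 h exposure, with DMSO as baseline.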

The nature of test [14]: BSK_3C_TissueFactor: BioMAP Diversity Plus: 3C Assay for Tissue Factor Biomarker Activity (AID 2282997). The following applies: BioMAP 3C HUVEC, tissue factor biomarker readout; actives raise or lower the signal. The method in brief: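 Values derive from bidirectional curve fitting against DMSO of Tissue Factor ELISA signals, taken 24 h after dosing primary human umbilical vein endothelial cells.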

Test [15] is described as follows: BSK_3C_uPAR: BioMAP Diversity Plus: 3C Assay for Urokinase-type plasminogen activator receptor (uPAR) Biomarker Activity (AID 2282998). The conditions noted are these: BioMAP 3C HUVEC, uPAR biomarker ELISA; actives raise or lower the signal. The method in brief: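 ELISA readout of uPAR on human vascular endothelium (umbilical vein primary cells), taken 24 h after chemical dosing. Increases and decreases are both fitted relative to DMSO vehicle.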

Test [16] can be described thus: BSK_3C_VCAM1: BioMAP Diversity Plus: 3C Assay for Vascular cell adhesion molecule 1 (VCAM1) Biomarker Activity (AID 2282999). The conditions noted are these: BioMAP 3C HUVEC, VCAM1 ELISA, cytokine-stimulated; actives raise or lower the signal. The procedure, abridged: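 Human umbilical vein endothelial cells (3C system), biomarker read by ELISA 24 h after dosing; bidirectional fit against DMSO baseline. Cytotoxicity tracked by SRB total-protein staining in parallel cultures at biomarker time.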
(ELISA stands for enzyme-linked immunosorbent assay.)

The nature of test [17]: BSK_4H_Eotaxin3: BioMAP Diversity Plus: 4H Assay for Eotaxin 3 Biomarker Activity (AID 2283000).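 Further: CCL26 protein level quantified by ELISA in parallel with SRB cytotoxicity check.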 The following applies: actives raise or lower the signal; primary human endothelial cells (HUVEC). The procedure, abridged:
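Endothelial primary cells (human umbilical vein) exposed to compound for 24 h. ELISA detection of Eotaxin-3.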

Test [18] addresses Oxysterols receptor LXR-beta (Homo sapiens) (UniProt P55055). In words: ATG_LXRb_TRANS: Attagene TRANS-FACTORIAL HepG2 Assay for human Liver X Receptor beta (LXRb) (AID 2282981; active means hit-call score of the fitted dose curve at least 0.9, where 1 is the maximum). The conditions noted are these: HepG2 Attagene TRANS GAL4-LXRb reporter, mRNA. The method in brief:
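Gain-of-signal mRNA reporter endpoint, DMSO as negative control. Transiently transfected HepG2 cells carrying the NR-Gal4 chimera and GAL4-UAS reporter units were treated 24 h; transcripts quantified by RT-PCR and capillary electrophoresis fluorescence.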

Test [19] has as its target Oxysterols receptor LXR-alpha (Homo sapiens) (UniProt Q13133). In words: ATG_LXRa_TRANS: Attagene TRANS-FACTORIAL HepG2 Assay for human Liver X Receptor alpha (LXRa) (AID 2282980; active means hit-call score of the fitted dose curve at least 0.9, where 1 is the maximum). The conditions noted are these: HepG2 Attagene TRANS reporter, LXRa transactivation. The method in brief:
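Transient HepG2 transfectants, 24 h dosing, RT-PCR/CE mRNA reporter quantitation; gain-of-signal vs DMSO.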

Test [20] deals with Estrogen-related receptor gamma (Homo sapiens) (UniProt P62508). In words: ATG_ERRg_TRANS: Attagene TRANS-FACTORIAL HepG2 Assay for human Estrogen-Related Receptor gamma (ERRg) (AID 2282977; active means hit-call score of the fitted dose curve at least 0.9, where 1 is the maximum;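 further: hits increase reporter signal over DMSO so potencies reflect activators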). The conditions noted are these: HepG2 Attagene TRANS reporter, ERRg transactivation. The procedure, abridged: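 HepG2 cells transiently transfected with multiplexed GAL4-UAS reporter units and chimeric NR-Gal4 constructs were exposed to test chemicals for 24 h. Reporter mRNA was measured by RT-PCR, 6-FAM primer extension, HpaI digestion and capillary electrophoresis; gain-of-signal versus DMSO.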

As to `O=[N+]([O-])OCC(CO[N+](=O)[O-])(CO[N+](=O)[O-])CO[N+](=O)[O-]`, the call in test [1], in [2], in [3], in test [4], in test [5] and in test [6] was inactive. Also, the compound was classed as inactive in [7], in [8], in test [9], in test [10], in test [11] and in [12].
Consider `Cc1c([N+](=O)[O-])cccc1[N+](=O)[O-]`, for which the compound was called inactive in test [13], in test [7], in [8], in test [9], in test [10] and in [11]. In addition, the compound was called inactive in test [12], in test [14], in test [15], in test [16] and in [17].
For the compound `O=[N+]([O-])c1cccc([N+](=O)[O-])c1`, the compound was called inactive in [3], in test [18], in test [7], in test [8], in test [9] and in test [10]. Also, the compound was classed as inactive in test [12], in [14], in [15], in [16] and in [17]. Moreover, the AC50 (as a rule, the midpoint of the concentration-response curve, whichever way the signal moves) in test [11] was active: 76.8 µM.
In the case of `COc1ccc([N+](=O)[O-])cc1[N+](=O)[O-]`, the compound was classed as inactive in [2], in test [19], in test [18], in [4], in test [5] and in test [7]. Also, the call in test [8], in test [9], in test [10], in test [11] and in [12] was inactive.
Take `N#CBr`: the compound was called inactive in [3], in [4], in test [13], in [7], in [8] and in test [9]. The outcome in test [10], in test [11] and in test [12] was inactive.
Turning to `COP(C)(=O)OC`, the compound was called inactive in test [1], in [20], in [2], in test [19], in [18] and in [4]. Moreover, the compound was called inactive in test [13], in test [5], in test [6], in test [7], in test [8] and in [9]. Also, the result in test [10], in test [11] and in test [12] was inactive.
